Test results as given in US20160303147A1 (priority 2007, published 2016).

Test: Pharmacokinetics in mouse and rabbit after CMX001
Conditions: in vivo; Mouse-Rabbit, dose 2 mg/kg CMX001 (calculated from mouse doses 2 and 10, rabbit doses 5 and 10 mg/kg); analyte = label
Text: Table 3 illustrates the PK comparison of CMX 001 with CMX 021 and CMX 064 for mouse, rabbit and human.

CCCCCCCCCCCCCCCCOCCCOP(=O)(O)CO[C@H](CO)Cn1ccc(N)nc1=O [CMX001]
Cmax: 7.9 to 18 ng/mL
